For two molecules, inhibition results are on record in PubChem BioAssay AID1135 (Sanford-Burnham Center for Chemical Genomics, 2008).

Chains of the proteins cited; added tags and fusions are not shown.
UniProt P05186, whole entry: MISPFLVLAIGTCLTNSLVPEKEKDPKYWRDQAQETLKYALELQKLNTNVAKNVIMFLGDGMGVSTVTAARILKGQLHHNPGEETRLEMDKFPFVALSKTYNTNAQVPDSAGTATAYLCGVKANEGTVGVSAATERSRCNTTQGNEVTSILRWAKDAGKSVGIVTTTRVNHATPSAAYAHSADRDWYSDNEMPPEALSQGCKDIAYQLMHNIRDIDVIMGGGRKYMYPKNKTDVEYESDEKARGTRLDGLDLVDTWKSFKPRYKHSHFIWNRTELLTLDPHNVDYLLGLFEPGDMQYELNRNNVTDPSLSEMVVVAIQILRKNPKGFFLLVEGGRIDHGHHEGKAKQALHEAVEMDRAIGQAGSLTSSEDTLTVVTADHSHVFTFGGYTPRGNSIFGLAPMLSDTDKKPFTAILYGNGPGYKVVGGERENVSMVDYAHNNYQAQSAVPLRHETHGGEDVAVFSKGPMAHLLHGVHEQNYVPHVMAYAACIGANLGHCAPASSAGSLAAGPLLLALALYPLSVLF

The entries are a selection whose mix differs from that of the whole data set. Activity calls are given as the source filed them.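 Rule for the calls: active = over 50% inhibition of tissue-nonspecific alkaline phosphatase at 20 µM in the single-dose screen; inactive = the rest.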

The assay concerns the target Alkaline phosphatase, tissue-nonspecific isozyme (Homo sapiens) (UniProt P05186). As to the kind of experiment: human TNAP enzyme inhibitors, primary screen, biochemical, luminescent, high phosphate acceptor level, uHTS (AID 1135).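 Note: plate controls were DMSO wells for no effect and EDTA-quenched wells as full inhibition for full effect.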 The note with it: purified TNAP, CDP-star luminescence, 1 M DEA; at 20 µM; stronger effect = higher value.
As a reminder, the inhibition is the relative decrease from the control value, in per cent. Take `Cc1c2c(nc3ccccc13)SC(C(Cl)Cl)C2` (configuration not stated): the inhibition was inactive: -1.6%.

For `CP(=O)(Nc1cccc(Br)c1)Oc1ccccc1` (configuration not stated), the inhibition was inactive: -3.9%.
